Drawing on patent US9526699B2, “Biodegradable and thermosensitive poly(organophosphazene) hydrogel, preparation method thereof and use thereof” (KIST, priority 2006, dated 2016), this text covers Max. gelling temp. for six substances.

This data set can be described thus: Sol-gel phase transition of poly(organophosphazene) solutions with temperature (Brookfield rheometer). Format: physicochemical. The following applies: pH 7.4. The source says:
In Table 3, the term ‘max. (maximum) gelling temp.
The substance “poly[(isoleucine ethyl-ester)(aminomethoxy polyethylene glycol 550)(glycylglycine)phosphazene] [Example 9]” had a Max. gelling temp. of 9 °C.

With “poly[(isoleucine ethyl-ester)(aminomethoxy polyethylene glycol 550) phosphazene] [Example 11]”, the Max. gelling temp. came to 8 °C. Turning to “poly[(phenylalanine ethyl-ester)(ethyl-2-(O-glycyl)lactate)(aminomethoxy polyethylene glycol 550)] [Example 3]”, the Max. gelling temp. worked out at 2 °C.

“poly[(isoleucine ethyl-ester)(aminomethoxy polyethylene glycol 550)(glycylglycine)(glycyl glycyl polyethyleneimine)phosphazene] [Example 13]” registered a Max. gelling temp. of 9 °C. The result for “poly[(isoleucine ethyl-ester)(aminomethoxy polyethylene glycol 550)(glycylglycine)phosphazene] [Example 10]” reads 6 °C. The result for “poly[(isoleucine ethyl-ester)(aminomethoxy polyethylene glycol 350)(glycine)phosphazene] [Example 5]” reads 7 °C.
